Assay results from patent publication US11371040B2, “Endonuclease-barcoding” (priority 2015, dated 2022).
Entries after “also recorded” stand apart in the source; their conditions may differ.

Key:
Assay type in all cases: cell-based
PC9 cells [1] = system: PC9 cells
Method: Oligos encoding the targeting sequence were then annealed and ligated into the pSpCas9(BB)-2A-Puro (Ran et al., 2013) vector digested with Bbsl (New England Biolabs). […] The set of silent mutations is designed to enable PCR specificity and to avoid recognition by the corresponding sgRNA used to cleave the endogenous sequence. For each targeted locus, cells were co-transfected with 2 μg of the CRISPR/Cas9 plasmid and […] of either the control or the sense/nonsense ssODN (50 μM). Immediately after transfection, the cells were pooled in the same flask.
gDNA was extracted using the NucleoSpin Tissue kit (Macherey-Nagel). Total RNA was isolated using the Tri-Reagent (Sigma-Aldrich) and the RNeasy kit (Qiagen), DNase digested and reverse-transcribed using the Improm-II Reverse Transcription System (Promega). The sequence of the different PCR primers, designed using Primer-BLAST (NCBI), is provided in the sequence listing (SEQ ID N^o30-57). […] Primer specificity for each particular barcode was assessed. qPCR was performed from 100 ng of gDNA using SYBR Green (Life Technologies) on a 7900 HT Fast-Real-Time, a Q-PCR ABI PRISM 7500 or a QuantStudio Flex PCR System (Life Technologies). qPCR analysis was performed using the standard curve or the Pfaffl methods (Pfaffl, 2001).

PC9 cells [2] = assay: Invasion assay of EGFR-barcoded PC9 cells (matrigel Boyden chambers); details: pre-treated two days, 24 hr in chamber, 0.5 μM
PC9 cells [3] = assay: Multiplexed CRISPR-barcoding (EGFR-T790M, KRAS-G12D, EML4-ALK) in PC9 cell culture; details: multiplex CRISPR-barcoded PC9 cells

## COc1cc2ncnc(Nc3ccc(F)c(Cl)c3)c2cc1OCCCN1CCOCC1 [gefitinib]
PC9 cells [1]
  enrichment of EGFR-T790M containing cells: readily detectable; also recorded: stronger effect
PC9 cells [2]
  EGFR-T790M barcode in cells that migrated through the matrigel-coated membrane vs cells inside the chamber: dramatically enriched
PC9 cells [3]
  enrichment of the EGFR-T790M, KRAS-G12D and EML4-ALK sequences: specific enrichment
